What was measured:
[1] = system: PI3K-δ (RAJI); assay: p-AKT HTRF assay, PI3K-δ in RAJI cells stimulated with anti-IgM; assay type: cell-based; conditions: Homo sapiens, read-out: p-AKT HTRF IC50 PI3K-δ (RAJI)
Description: (§1) Cells were incubated at 37° C. in a 5% CO2 atmosphere overnight. […] Medium was then aspirated and 50 μL/well of lysis buffer was added. Plates were shaked for 45 minutes at room temperature and then 16 ul/well of lysate was transferred to 384-well plate. 4 ul/well of premixed antibody was added to the wells. The plate was centrifuged at 1000 rpm at RT for 1 minute and then incubated for 4 hours at 22° C., and Phospho-AKT (ser473) Kit was used for detection.

[2] = system: PI3K-α (SKOV3); assay: p-AKT HTRF assay, PI3K-α in SKOV3 cells; assay type: cell-based; conditions: Homo sapiens, SK-OV-3, read-out: p-AKT HTRF IC50 PI3K-α (SKOV3)
Description: as §1

[3] = system: PI3K-γ (RAW264.7); assay: p-AKT HTRF assay, PI3K-γ in RAW 264.7 cells stimulated with C5a; assay type: cell-based, murine; conditions: Mus musculus, RAW264.7, read-out: p-AKT HTRF IC50 PI3K-γ (RAW264.7)
Description: as §1

[4] = system: PI3K-β (786-O); assay: p-AKT HTRF assay, PI3K-β in 786-O cells; assay type: cell-based; conditions: Homo sapiens, 786-0, read-out: p-AKT HTRF IC50 PI3K-β (786-O)
Description: as §1

Cc1nnc(-c2c(N)ncnc2N[C@@H](C)c2nc3cccc(C#CCO)c3c(=O)n2-c2ccccc2)o1 [Example 35, (S)-2-(1-((6-amino-5-(5-methyl-1,3,4-oxadiazol-2-yl)pyrimidin-4-yl)amino)ethyl)-5-(3-hydroxyprop-1-yn-1-yl)-3-phenylquinazolin-4(3H)-one]
IC50 [1]: 11.2 nM
IC50 [2]: 1720 nM
IC50 [3]: 1180 nM
IC50 [4]: 482 nM

From patent US10751339B2, “Substituted aminopyrimidine compounds and methods of use” (SUNSHINE LAKE PHARMA CO., LTD., priority 2018, dated 2020)
